In PMC8647500 (Molecular Brain, 2021):

Tested on: mutants of DA1.0 (#76, #310, and #430)
Conditions: HeLa cells, SCH 10 μM

SMILES: CN1CCc2cc(Cl)c(O)cc2[C@@H](c2ccccc2)C1 [SCH, R( +)-SCH 23390 hydrochloride]
- effect of antagonist on the response of mutants #76, #310 and #430 to DA: blocked

Structures can show the parent of a compound that is named as a salt.
